## Cyclic peptide permeability, from CycPeptMPDB

PAMPA is the parallel artificial membrane permeability assay, which has no cells and reads passive diffusion. Permeability is given as log10 of P in cm/s; higher (less negative) is more permeable.

{"smiles": "CC(C)C[C@@H]1NC(=O)[C@@H](CC(C)C)N(C)C(=O)[C@H](C)N(C)C(=O)[C@@H]2CCCN2C(=O)[C@H](Cc2ccccc2)NC(=O)[C@@H](CC(C)C)N(C)C(=O)[C@@H]2CCCN2C1=O", "PAMPA (log10 cm/s)": "-5.47"}
{"smiles": "CC(C)C[C@@H]1NC(=O)[C@H](C)NC(=O)[C@@H]2CCCN2C(=O)[C@H](Cc2ccccc2)NC(=O)CN(Cc2ccccc2)C(=O)[C@@H]2CCCN2C(=O)[C@H](CC(C)C)NC1=O", "PAMPA (log10 cm/s)": "-5.60"}
{"smiles": "CC(C)C[C@@H]1C(=O)N(C)[C@@H](CC(C)C)C(=O)N2CCC[C@@H]2C(=O)N[C@H](CC(C)C)C(=O)N[C@@H](Cc2ccccc2)C(=O)N(C)[C@H](C)C(=O)N1C", "PAMPA (log10 cm/s)": "-5.04"}
{"smiles": "CC(C)C[C@@H]1C(=O)N[C@@H](Cc2ccccc2)C(=O)N2CCC[C@@H]2C(=O)N(C)[C@H](C)C(=O)N[C@H](CC(C)C)C(=O)N(Cc2ccccc2)CC(=O)N2CCC[C@H]2C(=O)N1C", "PAMPA (log10 cm/s)": "-5.90"}
{"smiles": "CC(C)C[C@@H]1NC(=O)[C@@H]2CCCN2C(=O)[C@H](CC(C)C)NC(=O)[C@H](CC(C)C)N(C)C(=O)C[C@H](Cc2ccccc2)NC(=O)[C@H](Cc2ccccc2)NC1=O", "PAMPA (log10 cm/s)": "-5.74"}
{"smiles": "CC(C)C[C@@H]1C(=O)N[C@@H](Cc2ccccc2)CC(=O)N2CCC[C@@H]2C(=O)N(C)[C@@H](CC(C)C)C(=O)N[C@@H](Cc2ccccc2)C(=O)N[C@H](C)C(=O)N1C", "PAMPA (log10 cm/s)": "-5.30"}
{"smiles": "CCCN1CC(=O)N[C@H](CC(C)C)C(=O)N(Cc2ccccc2)CC(=O)N2CCC[C@@H]2C(=O)N(Cc2ccccc2)CC(=O)N[C@@H](Cc2ccccc2)C(=O)N2CCC[C@H]2C1=O", "PAMPA (log10 cm/s)": "-6.42"}
{"smiles": "CC(C)C[C@@H]1C(=O)N2CCC[C@@H]2C(=O)N(Cc2ccccc2)CC(=O)N[C@@H](Cc2ccccc2)C(=O)N2CCC[C@H]2C(=O)N[C@@H](Cc2ccccc2)CC(=O)N[C@H](CC(C)C)C(=O)N1C", "PAMPA (log10 cm/s)": "-5.83"}
{"smiles": "CC(C)C[C@H]1NC(=O)C[C@H](Cc2ccccc2)NC(=O)[C@@H]2CCCN2C(=O)[C@H](Cc2ccccc2)NC(=O)[C@@H](CC(C)C)NC(=O)[C@H]2CCCN2C(=O)C[C@H](Cc2ccccc2)NC1=O", "PAMPA (log10 cm/s)": "-5.71"}
{"smiles": "CC(C)C[C@@H]1NC(=O)[C@H](C)N(C)C(=O)[C@H](Cc2ccccc2)NC(=O)CN(Cc2ccccc2)C(=O)[C@@H]2CCCN2C(=O)[C@@H](CC(C)C)N(C)C1=O", "PAMPA (log10 cm/s)": "-4.88"}
{"smiles": "CC(C)C[C@H]1NC(=O)[C@@H]2CCCN2C(=O)CN(Cc2ccccc2)C(=O)[C@@H](CC(C)C)NC(=O)[C@H](C)NC(=O)[C@@H]2CCCN2C(=O)[C@H](Cc2ccccc2)NC1=O", "PAMPA (log10 cm/s)": "-5.95"}
{"smiles": "CCCN1CC(=O)N(C)[C@H](CC(C)C)C(=O)N(Cc2ccccc2)CC(=O)N2CCC[C@@H]2C(=O)N(C)[C@H](CC(C)C)C(=O)N[C@@H](Cc2ccccc2)C(=O)N2CCC[C@@H]2C1=O", "PAMPA (log10 cm/s)": "-5.03"}
{"smiles": "CC(C)C[C@H]1C(=O)N(C)[C@@H](CC(C)C)C(=O)N2CCC[C@H]2C(=O)N(C)[C@@H](CC(C)C)C(=O)N[C@@H](Cc2ccccc2)C(=O)N[C@H](C)C(=O)N1C", "PAMPA (log10 cm/s)": "-5.22"}
{"smiles": "CCCN1CC(=O)N[C@H](CC(C)C)C(=O)N(Cc2ccccc2)CC(=O)N2CCC[C@H]2C(=O)N(Cc2ccccc2)CC(=O)N[C@@H](Cc2ccccc2)C(=O)N2CCC[C@H]2C1=O", "PAMPA (log10 cm/s)": "-5.81"}

2 of these entries, quoted again:

structure (SMILES)	PAMPA (log10 cm/s)
CC(C)C[C@@H]1C(=O)N(C)[C@@H](CC(C)C)C(=O)N2CCC[C@@H]2C(=O)N[C@H](CC(C)C)C(=O)N[C@@H](Cc2ccccc2)C(=O)N(C)[C@H](C)C(=O)N1C	-5.04
CC(C)C[C@H]1NC(=O)C[C@H](Cc2ccccc2)NC(=O)[C@@H]2CCCN2C(=O)[C@H](Cc2ccccc2)NC(=O)[C@@H](CC(C)C)NC(=O)[C@H]2CCCN2C(=O)C[C@H](Cc2ccccc2)NC1=O	-5.71

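The data file gives no further conditions (lipid, pH, time, direction or concentration), and values from different papers need not be comparable. Other peptides of the study may be missing here. Entries at the database's floor value (log10 P of -10) are not listed.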

Data: CycPeptMPDB; original report Townsend et al. 2020, doi:10.26434/chemrxiv.13335941.v1.